By UniProt entry, the sequences of proteins in these tests, tags left out.
UniProt P81908, whole entry: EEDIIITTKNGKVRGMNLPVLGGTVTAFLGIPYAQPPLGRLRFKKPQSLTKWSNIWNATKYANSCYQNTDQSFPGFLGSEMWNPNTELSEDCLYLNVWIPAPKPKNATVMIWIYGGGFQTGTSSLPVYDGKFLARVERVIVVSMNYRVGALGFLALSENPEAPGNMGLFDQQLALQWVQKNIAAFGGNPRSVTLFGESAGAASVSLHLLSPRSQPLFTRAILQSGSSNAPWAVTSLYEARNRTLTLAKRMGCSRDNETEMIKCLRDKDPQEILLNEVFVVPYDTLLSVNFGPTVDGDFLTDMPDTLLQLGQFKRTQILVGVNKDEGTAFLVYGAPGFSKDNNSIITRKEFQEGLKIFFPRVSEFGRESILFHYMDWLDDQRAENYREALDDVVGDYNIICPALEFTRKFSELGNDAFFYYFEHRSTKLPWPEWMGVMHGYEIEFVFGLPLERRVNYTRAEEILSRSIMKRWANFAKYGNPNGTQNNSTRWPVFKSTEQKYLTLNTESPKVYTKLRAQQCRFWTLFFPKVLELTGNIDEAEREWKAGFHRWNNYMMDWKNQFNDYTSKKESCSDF

According to publication PMC5506883 (Heliyon, 2017):

Molecular target: Horse butyrylcholinesterase (EC 3.1.1.8) (Equus caballus, UniProt P81908)
Assay: Anticholinesterase assay
Assay type: biochemical
Conditions: Butyrylcholinesterase inhibition activity IC50 μM ± SEM, mean of three experiments with SEM; 15 min at 25 °C, pH 8.0

**Q.** How did the IC50 turn out when CNC(=O)Oc1ccc2c(c1)[C@]1(C)CCN(C)[C@@H]1N2C [Eserine] was run?
**A.** 7.8 ± 0.27 µM
